# Laboratory results as given in US9216999B2, “Substituted pyrrolo[2,3-h][1,6]naphthyridines and compositions thereof as JAK inhibitors” (priority 2011, dated 2015).
# Amino acid sequences for entries named in this document (tags omitted). A change or cut given only in a name is not applied to a line headed by its entry.
# UniProt P52333: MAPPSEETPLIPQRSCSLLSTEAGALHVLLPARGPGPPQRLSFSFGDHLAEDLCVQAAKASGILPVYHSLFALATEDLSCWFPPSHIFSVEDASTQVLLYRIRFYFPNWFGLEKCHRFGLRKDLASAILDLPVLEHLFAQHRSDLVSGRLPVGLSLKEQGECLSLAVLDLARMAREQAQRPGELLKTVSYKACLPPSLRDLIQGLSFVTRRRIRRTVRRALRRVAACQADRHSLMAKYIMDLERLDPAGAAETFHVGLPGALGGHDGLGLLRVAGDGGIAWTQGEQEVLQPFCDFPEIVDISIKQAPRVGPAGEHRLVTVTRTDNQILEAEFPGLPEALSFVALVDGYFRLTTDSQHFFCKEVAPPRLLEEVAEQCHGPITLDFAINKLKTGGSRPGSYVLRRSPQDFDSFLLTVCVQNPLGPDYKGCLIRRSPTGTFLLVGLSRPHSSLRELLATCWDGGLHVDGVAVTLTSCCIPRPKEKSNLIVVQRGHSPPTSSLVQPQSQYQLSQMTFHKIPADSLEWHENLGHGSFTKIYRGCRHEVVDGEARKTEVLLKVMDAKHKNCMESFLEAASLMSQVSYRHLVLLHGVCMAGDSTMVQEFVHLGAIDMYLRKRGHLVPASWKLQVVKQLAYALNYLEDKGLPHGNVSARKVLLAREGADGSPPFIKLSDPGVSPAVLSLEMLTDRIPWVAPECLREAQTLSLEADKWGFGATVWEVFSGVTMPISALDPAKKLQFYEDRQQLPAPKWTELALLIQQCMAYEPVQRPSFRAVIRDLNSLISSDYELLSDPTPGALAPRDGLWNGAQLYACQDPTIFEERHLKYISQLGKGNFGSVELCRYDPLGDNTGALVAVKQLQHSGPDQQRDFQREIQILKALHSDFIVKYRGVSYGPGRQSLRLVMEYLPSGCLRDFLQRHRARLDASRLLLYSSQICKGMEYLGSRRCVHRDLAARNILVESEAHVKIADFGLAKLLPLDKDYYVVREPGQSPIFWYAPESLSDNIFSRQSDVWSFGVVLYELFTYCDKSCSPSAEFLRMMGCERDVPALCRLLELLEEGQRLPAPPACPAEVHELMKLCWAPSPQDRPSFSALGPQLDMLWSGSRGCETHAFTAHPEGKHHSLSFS
# Read-outs that look alike come from different tables or passages of the source.
# Experiments:
# JAK1 = JAK1 (Homo sapiens (Human), UniProt P23458); assay: Enzyme assay (Assay Example^a 1), JAK1; assay type: biochemical; conditions: ATP 100 μM
# JAK3 = JAK3 (Homo sapiens (Human), UniProt P52333); assay: Enzyme assay (Assay Example^a 1), JAK3; assay type: biochemical
# JAK2 [1] = target: T1, JAK2 (Homo sapiens (Human), UniProt O60674); assay: Enzyme assay (Assay Example^a 1), JAK2; assay type: biochemical
# JAK2 [2] = target: T1, JAK2; assay: JAK2 enzyme assay (Assay Example^b 1)
# [3] = IC50 (μM) JAK2, Table^b 80, ATP 100 μM
# [4] = IC50 (μM) JAK2, Table^b 79, ATP 100 μM
# [5] = ATP 100 μM, read-out: IC50 (μM) JAK2
smiles,measurement,setting,value
CC(C)(C)OC(=O)N1CCCC(c2nnn3cnc4[nH]ccc4c23)C1 (racemic) [compound 13],IC50,JAK1; Table^a 154,0.12 µM
same,IC50,JAK3,> 1 µM
same,IC50,JAK2 [1],0.25 µM
c1cc2c(ncn3nnc(C4CCCNC4)c23)[nH]1 (racemic) [compound 15],IC50,JAK1; Table^a 154,0.29 µM
c1cncc(CN2CCCC(c3nnn4cnc5[nH]ccc5c34)C2)c1 (racemic) [compound 18],IC50,JAK1; Table^a 154,0.21 µM
same,IC50,JAK3,> 1 µM
O=C(Nc1nncs1)N1CCCC(c2nnn3cnc4[nH]ccc4c23)C1 (racemic) [compound 20],IC50,JAK3,0.33 µM
same,IC50,"JAK2 [1]; ATP 100 μM, Table^a 154, read-out: IC50 (μM) JAK2",0.032 µM
C[C@@H]1CCN(C2CCCC2)C[C@@H]1n1ccc(=O)c2cnc3[nH]ccc3c21 (racemic) [compound 47],IC50,JAK2 [2]; [3],0.23 µM
"OC(CN1CCC(c2nnn3cnc4[nH]ccc4c23)CC1)c1ccc(C(F)(F)F)cc1 (racemic) [compound 212, 2-[4-(7H-Pyrrolo[3,2-e][1,2,3]triazolo[1,5-c]pyrimidin-1-yl)piperidin-1-yl]-1-[4-(trifluoromethyl)phenyl]ethanol]",IC50,JAK1; Table^a 154,0.0054 µM
"CC1CCN(C(=O)C2CCC(C(C)(C)C)CC2)CC1n1ccc(=O)c2cnc3[nH]ccc3c21 (single isomer, unassigned) [Synthetic Example^b 48a, 1-{1-[4-(tert-Butyl)cyclohexanecarbonyl]-4-methylpiperidin-3-yl}-1H-pyrrolo[2,3-h][1,6]naphthyridin-4(7H)-one]",IC50,JAK2 [2]; [3],1 µM
"CC1CCN(C(=O)C2CCC(C(C)(C)C)CC2)CC1n1ccc(=O)c2cnc3[nH]ccc3c21 (single isomer, unassigned) [Synthetic Example^b 48b, 1-{1-[4-(tert-Butyl)cyclohexanecarbonyl]-4-methylpiperidin-3-yl}-1H-pyrrolo[2,3-h][1,6]naphthyridin-4(7H)-one]",IC50,JAK2 [2]; [3],0.46 µM
"N#CCC[C@H]1CC[C@H](n2c(=O)[nH]c(=O)c3cnc4[nH]ccc4c32)CC1 [Synthetic Example^b 134, 3-[trans-4-(2,4-Dioxo-2,3,4,7-tetrahydro-1H-pyrrolo[3′,2′:5,6]pyrido[4,3-d]pyrimidin-1-yl)cyclohexyl]propanenitrile]",IC50,"JAK2 [2]; IC50 (μM) JAK2, ATP 100 μM",0.025 µM
CC1OCN(C2CCCCC2)c2c1cnc1[nH]ccc21 (stereo not shown) [compound 1],IC50,JAK2 [2]; [4],2.2 µM
OC[C@H]1CC[C@H](c2nnn3cnc4[nH]ccc4c23)CC1 [compound 10],IC50,JAK1,0.0031 µM
same,IC50,JAK2 [1]; [5],0.019 µM
O=S1(=O)C=CN(C2CCCCC2)c2c1cnc1[nH]ccc21 [compound 12],IC50,JAK2 [2]; [4],0.46 µM
CC(C)(C)OC(=O)N[C@H]1CC[C@H](c2nnn3cnc4[nH]ccc4c23)CC1 [compound 59],IC50,JAK1; Table^a 154,0.032 µM
O=C(OCc1ccccc1)N1CCC(c2ncn3cnc4[nH]ccc4c23)CC1 [compound 84],IC50,JAK1; Table^a 154,0.018 µM
same,IC50,JAK3; read-out: IC50 (μM) JAK3,0.62 µM
N#Cc1ccc(NC2CCC(c3nnn4cnc5[nH]ccc5c34)CC2)c(F)c1 (stereo not shown) [compound 129],IC50,JAK3; read-out: IC50 (μM) JAK3,> 1 µM
same,IC50,JAK2 [1]; read-out: IC50 (μM) JAK2,0.078 µM
O=c1[nH]c(=O)n([C@H]2CC[C@H](CN3CC(O)(C(F)(F)F)C3)CC2)c2c1cnc1[nH]ccc12 [compound 129],IC50,JAK2 [2]; IC50 (μM) JAK2,0.18 µM
O=CC1CCC(n2c(=O)[nH]c(=O)c3cnc4[nH]ccc4c32)CC1 (stereo not shown) [compound 133],IC50,"JAK2 [2]; IC50 (μM) JAK2, ATP 100 μM",0.27 µM
"Fc1ccc(C2(NC[C@H]3CC[C@H](c4nnn5cnc6[nH]ccc6c45)CC3)COC2)cc1 [compound 322, N-{[trans-4-(7H-pyrrolo[3,2-e][1,2,3]triazolo[1,5-c]pyrimidin-1-yl)cyclohexyl]methyl}-3-(4-fluorophenyl)oxetan-3-amine]",IC50,JAK2 [1]; [5],0.0071 µM
"Fc1ccc(C2(NC[C@H]3CC[C@H](c4nnn5cnc6[nH]ccc6c45)CC3)CC2)cc1 [compound 323, N-{[trans-4-(7H-pyrrolo[3,2-e][1,2,3]triazolo[1,5-c]pyrimidin-1-yl)cyclohexyl]methyl}-1-(4-fluorophenyl)cyclopropanamine]",IC50,JAK1,0.0051 µM
"OC[C@H]1CC[C@@H](c2nnn3cnc4[nH]ccc4c23)CC1 [compound 401, [cis-4-(7H-Pyrrolo[3,2-e][1,2,3]triazolo[1,5-c]pyrimidin-1-yl)cyclohexyl]methanol]",IC50,JAK1,0.012 µM
same,IC50,JAK2 [1]; [5],0.036 µM
